This data set is classed as physicochemical. The method, then:
Membrane fractions were solubilized in 50 mM sodium phosphate buffer, pH 8.0, 150 mM NaCl, 4% Triton X-100, 10% glycerol and 1 mM GSH and stored at 4° C. Samples were assayed for PGES activity as described above after 0, 3, 6, 24 and 240 h (10 days) at 4° C.
The activity of the purified His6-hPGES was assayed on a sample of protein. The remaining protein was divided in two parts, one was stored at 4° C. for 5 days, and one was frozen and stored at −20° C. for the same time. The PGES activity in the three samples was compared with that in a membrane fraction without solubilization. PGES activity was determined, as described above, for various amounts of protein. The samples were incubated for 1 min on ice or at 37° C. before stopping the reaction. The activity of the purified proteins was compared with the activity in BL21(DE3) membrane fraction without solubilization.

B1: His6-hPGES: full length human PGES fused at its N-terminus to six histidine residues (SEQ ID NO: 4), expressed in E. coli (protein)
chain: MHHHHHHMPAHSLVMSSPALPAFLLCSTLLVIKMYVVAIITGQVRLRKKAFANPEDALRHGGPQYCRSDPDVERCLRAHRNDMETIYPFLFLGFVYSFLGPNPFVAWMHFLVFLVGRVAHTVAYLGKLRAPIRSVTYTLAQLPCASMALQILWEAARHL
Take B1: the “PGES activity after solubilization or freeze-thawing” value is “does not appear to be affected by solubilization or freeze-thawing”.

These data come from US20030157084A1, “Methods for preparing purified prostaglandin E synthase” (priority 2001, published 2003).
